Ab-14 heavy chain CDR variants: yeast mating affinities

From the AlphaSeq antibody data of Li et al. 2023 (doi:10.1038/s41467-023-39022-2), copy in the FLAb collection.

Target peptide (SARS-CoV-2 spike, HR2 region): PDVDLGDISGINAS

Ab-14 is the parent antibody, in scFv form: VH, then a 15-residue (Gly4Ser)3 linker, then VL. The light chain is unchanged in all variants.
VH: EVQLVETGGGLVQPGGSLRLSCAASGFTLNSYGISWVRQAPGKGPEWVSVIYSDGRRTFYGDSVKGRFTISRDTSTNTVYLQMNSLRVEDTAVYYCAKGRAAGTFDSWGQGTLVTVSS
VL: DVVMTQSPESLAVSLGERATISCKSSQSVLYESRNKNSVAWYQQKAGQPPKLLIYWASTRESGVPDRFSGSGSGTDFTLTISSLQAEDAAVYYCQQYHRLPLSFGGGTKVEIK

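Designed CDR sequences, proposed from the first random library and measured here. Group labels follow the data file (Ctrl: baseline library sampled from a position-specific scoring matrix, with some repeated check sequences; Rand: our label for a block that the file lists under HC and that is probably the random mutants of the ten best first-round binders; En: ensemble of fine-tuned language models; GP: Gaussian process model; GPLM: also part of the Gaussian process libraries; HC: hill climbing; Gen: genetic algorithm; Gibbs: Gibbs sampling; a sequence that several methods proposed may carry one label only). The scFvs were displayed on barcoded MATa yeast, the peptide on MATalpha yeast. After mating in shaken culture at 30 °C for 16 h, diploids were selected and their barcode pairs sequenced. The ratio of observed to expected reads was calibrated, replicate by replicate, on BCL2-family standards whose Kd was known from biolayer interferometry. Mating was done six times.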

The parent's heavy chain CDRs are GFTLNSYGIS, VIYSDGRRTFYGDSVK, GRAAGTFDS; each variant's own CDRs replace them letter for letter.
This list holds designs with at most six substitutions.
The Kd shown is the geometric mean over detected replicates; a lower Kd is a better binder.
Where no diploid with the target was found in any replicate, the entry reads "not detected": below detection, most likely a poor binder, though not proof of it.
The parent sequence was in this pool as ten entries: three were never detected, three once, and four in most replicates, with averages from 2.2 nM to 240 nM.

CDR-H1	CDR-H2	CDR-H3	group	apparent Kd	detected
GFDLNSYGIS	VIYSDGRRTFYQDSVK	GRTAGTFDA	GP_Gen	39 nM	5/6
GFTLNKYGIS	VIYSDGRRTFYSDSVK	GRATGYFDS	Ctrl	59 nM	2/6
GFELNSYGIS	VIYSDGRRTFYSDSVK	GRLAGTFDS	GPLM_Gibbs	820 pM	6/6
GFTLNSYGIS	VIYSDGRRTFYGDSVK	GMEAGTFDT	GPLM_Gen	not detected	0/6
GFNLMSYGIS	VIYSDGRRTFYGDSVK	GRAAGNPDN	Ctrl	280 nM	1/6
GFSLNSYGIS	VIYSDGRRTFYVDSVK	GTVAGTFDS	GPLM_Gibbs	940 pM	6/6
GFSLNDYGIS	VIYSDGRRTFYGDPVK	GRTAGTFDS	GPLM_Gen	4.0 nM	6/6
GETLNSYGIS	VIYSDGRRTYYQDSVK	GRAEGTFKS	Ctrl	not detected	0/6
GFTPNEYGIS	VIYSDGRRTFYTDSVK	GRFAGTFDS	Rand	130 nM	4/6
GFTLNEYGIS	VIYSQGRRTFYTDSVK	GRFAGAFDS	Rand	not detected	0/6
GFTLNSYGIS	VIYSDGRRTFYGDSVK	GFIAGTFDS	Ctrl	15 nM	5/6
GFTLNSYGIS	VIYSDERRTFYDDSVK	GQLAGTFDS	Rand	not detected	0/6
GFSLNEYGIS	VIYSDGRRTFYGDSVK	GRAAGTFDA	GPLM_Gen	1.0 nM	6/6
GFTLNSYGIS	VIYADGRRTFYADSVK	GRAAATFDS	Ctrl	300 nM	2/6
GFNLNSYGIS	VIYSDGRRTFYGDKVK	GRNAGTFDS	GP_Gen	17 nM	6/6
GFDLNEYGIS	VIYADGRRTFYTDSVK	GENAGTFDS	En_HC	not detected	0/6
GETLNSYGIS	VIYSDGRRTFYGDSVK	GRAAGTFDS	Ctrl	7.5 nM	3/6
GFTLDSYGIS	VIYSDGRRTFYGDSVK	GRAAGTFVD	GPLM_HC	not detected	0/6
GFTINSYGIS	VIYSDGRRTFYGDSVK	GRWAGSFDS	Ctrl	28 nM	1/6
GFKLNSYGIS	VIYSDGRRTFYHDSVK	GKNAGTFDS	GP_Gibbs	39 nM	2/6
GFSLNEYGIS	VIYSDGRRTFYGDSVK	GRTAGTFDM	GPLM_Gen	150 pM	3/6
GFTLNDYGIS	VIYSDGFRTFIGDSVK	GRAAGTFDS	Ctrl	21 nM	1/6
GFDLNSYGIS	VIYSDGRRTFYGDSVK	GRDAGTFDS	GPLM_Gen	16 nM	6/6
GFTLNSYGIS	VIYSDGRRTFYLDSVK	GGAEGTFDS	Ctrl	not detected	0/6
GFWLNEYGIS	VIYSDGRRTFYHDSVK	GRTAGTFDS	GP_Gen	5.7 nM	6/6
GFNLNDYGIS	VIYSDGKRTFYGDSVK	GREAATFDS	Ctrl	not detected	0/6
GFVLNDYGIS	VIYSDGRRTFYGWSVK	GRAAGTFDS	Ctrl	not detected	0/6
GFTLESYGIS	VIYSDGRRTFYIDSVK	GNAAGTFDS	GP_Gen	2.8 nM	3/6
GFDLNSYGIS	VIYSDGRRTFYGDGVK	GRIAGTFDS	GP_Gibbs	14 nM	6/6
PFSLNSYGIS	VIYSDGRRTFYSDSVK	GRTAGTFDS	GP_Gibbs	210 nM	6/6
GFTLNNYGIS	VIYSDGRRTFYIDSVK	GRAAGTFDS	Ctrl	170 nM	5/6
WFTLNDYGIS	VIYSDGRRTQYIDSVK	GRAAGTFDS	GP_HC	not detected	0/6
GFDLNSYGIS	VIYSDGRRTFYGDSVK	GRTAGTFDC	GPLM_Gibbs	16 nM	1/6
GFELNDYGIS	VIYSDGRRTFYGDSVK	GRQAGTFDS	GPLM_Gibbs	9.4 nM	6/6
GFTLNEYGIS	VIYSDGMRTFYGDSVK	GRTAGTFDT	GP_Gen	1.1 nM	6/6
GFELNAYGIS	VIYSDGRRTAYGDSVK	GRQAGTFDS	GP_Gibbs	22 nM	5/6
YFKLNEYGIS	VIYSDGRRTFYGDSVK	GRTAGTFDS	GP_Gibbs	not detected	0/6
GFSLNSYGIS	VIYSDGRRTFYGDSVK	GAAAGTFDS	Ctrl+GPLM_Gen	2.6 nM	12/12
GFTLNEYGIS	VIYSDGRRTFYGQSVK	GRTAGTFDS	GP_Gibbs	4.5 nM	4/6
GFSINSYGIS	VIYSDGRRTFYGDSVK	GFNAGAFDS	Ctrl	8.7 nM	6/6
GFTLNSYGIS	VKYSDGRRTFYDDSVK	GQLAGTADS	Rand	not detected	0/6
GFTLNEYGIS	VIYSDGRRTFYSDSVK	GQPAGTFDS	GP_HC	960 pM	6/6
GFDLNSYGIS	VIYSDGRRTAYGDSVK	GRQAGTFDS	GP_Gen	2.7 nM	6/6
GFELNSYGIS	VIYSDGRRTFYADSVK	GVAAGTFDS	GP_Gen	6.1 nM	6/6
GFSLNEYGIS	VIYSDGRRTFYGDSVK	GKSAGTFDS	GPLM_Gibbs	2.0 nM	6/6
GFTLNEYGIS	VIYSDGRRTFYQDSVK	GRAAGTFLM	Ctrl	not detected	0/6
GFTLNSYGIS	VIYSDGRRTFYSDSVK	GMEAGTFDS	GPLM_Gen	1.4 nM	6/6
GFDLNEYGIS	VIYSDGRRTFYGDSVK	GQAAGTFDQ	GP_HC	2.5 nM	6/6
GFTLNSYGIS	VIYRDGRRTFYGDSVK	GRASGTFDS	Ctrl	not detected	0/6
GFTLNSYGIS	VIYSDGRRTFYSDSVK	GLVGGTFDS	GPLM_HC	10 nM	6/6
GFDLNSYGIS	VIYSDERRTFYGDSKK	GRAAGWFNS	Rand	not detected	0/6
GFDLNSYGIS	VIYSDGRRTVYGDSVK	GRTAGTFDS	GPLM_Gen	810 pM	6/6
GFTLNDYGIS	VIYSDGRRTFYGDSVK	GRVAGTFDS	Ctrl	4.4 nM	6/6
GFQLNSYGIS	VIYSDGRRTFYSDSVK	GQTAGTFDS	GP_Gen	3.3 nM	6/6
GFTLNDYGIS	VIYSDGRRTFYADSVK	GRAAGTFSS	GPLM_HC	not detected	0/6
GFDLNSYGIS	VIYSDGRRTFYVDSVK	GQLAGTFDS	GP_HC	12 nM	6/6
GFSLNSYGIS	VIYSDGRRTFYKDSVK	GNTAGTFDT	GP_Gibbs	3.8 nM	6/6
GFSLNEYGIS	VIYSDGRRTFYADSVK	GRAAGTFDF	GPLM_Gen	620 pM	6/6
GFNLNSYGIS	VIYSDGRRTFYADRVK	GKEAGTFDS	GP_Gibbs	1.0 nM	6/6
KFSLNSYGIS	VIYSDGRRTFYGDSVK	GWTAGTFDS	GP_Gen	13 nM	1/6
GFSLNSYGIS	VIYSDGRRTFYGDAVK	GKIAGTFDS	GPLM_Gibbs	54 nM	6/6
GFHLNSYGIS	VIYSDGRRTFYQDSVK	GREAGTFDS	GP_Gen	4.7 nM	6/6
GFNLNSYGIS	VIYSDGRRTFYGDSVK	GCQAGTFDS	GP_Gen	74 nM	5/6
GFSLNNYGIS	VIYSDGRRTFYIDSVK	GRAAGTFDS	GPLM_Gen	8.3 nM	6/6
GQTLNSYGRS	VIYADGRRTFYGDSVK	GRAAGTFDT	Ctrl	not detected	0/6
GFDLNSYGIS	VIYSDGRRTFYGDSVK	GKAAGTFDL	GPLM_Gen	not detected	0/6
GFELNSYGIS	VIYSDGRRTMYGDDVK	GMAAGTFDS	Ctrl	140 nM	6/6

A sequence that the file lists under several names has all its replicates pooled.
The range of this assay differs from that of the first round, and the authors advise against merging the two.
Nonspecific signal, from three strains lacking the peptide, appeared in 1% of pairings of all heavy chain designs, centred on 120 nM (5% of these signals below 7.0 nM); values are not corrected for it.
The authors averaged sequences with at least three values out of six and counted those with two or fewer as poor binders.